Assay [1] addresses PTPN2 (HiBIT-PTPN2 in 293T.109 cells) (Homo sapiens, UniProt P17706). Put plainly: HiBiT Degradation 293T.109 PTPN2 (Nano-Glo HiBiT Lytic Assay). On the technique in general: The HiBiT peptide binds its large partner to form an active luciferase.
Another assay has as its target PTPN2 (B16F10.4 cells) (Mus musculus, UniProt Q06180). In words: HiBiT Degradation B16F10.4 PTPN2.
[2] abbreviates: read-out: HiBiT Degradation 293T.109 PTPN2 24.0 hours DC50, tested form: TFA.
Setting [3] is: read-out: HiBiT Degradation B16F10.4 PTPN2 24.0 hours DC50, tested form: TFA.

Protein sequences, listed by entry. Tags and fused reporters are not part of them.
UniProt P17706, whole entry: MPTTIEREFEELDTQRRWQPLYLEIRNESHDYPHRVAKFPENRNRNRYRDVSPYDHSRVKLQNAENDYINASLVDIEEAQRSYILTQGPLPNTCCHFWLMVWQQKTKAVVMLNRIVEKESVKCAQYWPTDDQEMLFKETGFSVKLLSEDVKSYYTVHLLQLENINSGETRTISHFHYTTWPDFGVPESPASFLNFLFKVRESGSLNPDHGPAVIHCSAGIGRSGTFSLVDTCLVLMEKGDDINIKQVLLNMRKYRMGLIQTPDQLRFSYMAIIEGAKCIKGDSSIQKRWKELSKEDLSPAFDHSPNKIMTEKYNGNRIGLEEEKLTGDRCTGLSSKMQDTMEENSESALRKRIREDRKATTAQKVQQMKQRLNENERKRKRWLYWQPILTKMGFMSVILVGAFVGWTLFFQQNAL
UniProt Q06180, whole entry: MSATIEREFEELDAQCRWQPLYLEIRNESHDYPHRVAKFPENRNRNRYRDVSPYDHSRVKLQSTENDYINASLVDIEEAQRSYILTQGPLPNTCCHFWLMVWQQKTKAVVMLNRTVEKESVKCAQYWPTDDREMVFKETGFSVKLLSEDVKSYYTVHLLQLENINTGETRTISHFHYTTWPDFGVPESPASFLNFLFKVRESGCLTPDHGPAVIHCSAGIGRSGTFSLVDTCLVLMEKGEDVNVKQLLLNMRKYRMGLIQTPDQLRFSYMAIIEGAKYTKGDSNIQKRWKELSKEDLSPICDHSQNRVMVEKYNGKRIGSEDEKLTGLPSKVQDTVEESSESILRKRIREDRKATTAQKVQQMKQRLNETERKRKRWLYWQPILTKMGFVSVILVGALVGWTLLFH

Read-outs that look alike come from different tables or passages of the source. A value given as a limit tells only on which side of the number the result lay.

Regarding `O=C(O)COc1c(C(=O)O)sc(-c2cccc(NC3CCN(S(=O)(=O)Cc4cccc(NC(=O)CCCCCN5CCC(Nc6cccc7c6C(=O)N(C6CCC(=O)NC6=O)C7=O)CC5)c4)CC3)c2)c1Cl` (stereo not drawn), the 50% degradation concentration (DC50) (in general, the concentration giving 50% degradation) in assay [1] (setting [2]) was 200 to 1000 nM; on PTPN2 (B16F10.4 cells) (setting [3]), more than 1000 nM.
For `Cn1nc(C2CCC(=O)NC2=O)c2ccc(C3CCN(C(=O)Nc4cccc(CS(=O)(=O)N5CC[C@H](Nc6cccc(-c7sc(C(=O)O)c(OCC(=O)O)c7Cl)c6)CC5(C)C)c4)CC3(F)F)cc21` (stereo partly drawn) the same measures were 50 to 200 nM and 50 to 200 nM.
For `Cn1c(=O)n(C2CCC(=O)NC2=O)c2ccc(N3CCC(CCN4CCN(c5cccc(CS(=O)(=O)N6CC[C@H](Nc7cccc(-c8sc(C(=O)O)c(OCC(=O)O)c8Cl)c7)CC6(C)C)c5)C4=O)CC3)cc21` (stereo partly drawn) the same measures were 50 to 200 nM and 50 to 200 nM.
In the case of `CC1(C)C[C@@H](Nc2cccc(-c3sc(C(=O)O)c(OCC(=O)O)c3Cl)c2)CCN1S(=O)(=O)Cc1cccc(NC(=O)N2CCC(c3ccc4c5c(cccc35)C(=O)N4C3CCC(=O)NC3=O)C(F)(F)C2)c1` (stereo partly drawn), the DC50 (in assay [1] (read-out: HiBiT Degradation 293T.109 PTPN2 24.0 hours DC50); on PTPN2 (B16F10.4 cells) (read-out: HiBiT Degradation B16F10.4 PTPN2 24.0 hours DC50)) was less than 50 nM each time.
As for `Cc1cn(C2CCC(=O)NC2=O)c2ccc(N3CCC(CCNC(=O)Nc4cccc(CS(=O)(=O)N5CC[C@H](Nc6cccc(-c7sc(C(=O)O)c(OCC(=O)O)c7Cl)c6)CC5(C)C)c4)CC3)cc12` (stereo partly drawn), the 50% degradation concentration (DC50) in assay [1] (setting [2]) lay within 50 to 200 nM; at PTPN2 (B16F10.4 cells) (setting [3]), 200 to 1000 nM.
For `CC1(C)C[C@@H](Nc2cccc(-c3sc(C(=O)O)c(OCC(=O)O)c3Cl)c2)CCN1S(=O)(=O)Cc1cccc(NCCNC2CCN(c3ccc4c5c(cccc35)C(=O)N4C3CCC(=O)NC3=O)CC2)c1` (stereo partly drawn) the same measures were less than 50 nM and 50 to 200 nM.

Source of the values: patent US20250302815A1, “PROTEIN TYROSINE PHOSPHATASE TARGETING LIGANDS” (CALICO LIFE SCIENCES LLC, priority 2021, published 2025).
